# According to PubChem BioAssay AID1665 (Sanford-Burnham Center for Chemical Genomics, 2009):
# This is a selection; strong and weak results do not stand in their true shares. Active and inactive are the calls of the source.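 The calls were made as follows: active = nuclear translocation activity above 50% at 5 µM, with a well cell count of 50 or more; inconclusive = wells under 50 cells across six images, flagged as toxic; inactive = the rest.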
# Experiment: beta-catenin nuclear localization change in HeLa – imaging, HeLa cells, immunofluorescence, high-content, primary screen (AID 1665);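 also: per-cell ratio of nuclear to cytoplasmic median beta-catenin stain intensity; plate controls were DMSO negative control for no effect and GSK-3 inhibitor IX positive control for full effect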
# Conditions: at 5 µM, stronger effect = higher value
row,Compound,nuclear translocation activity
1,O=C(O)CNc1ccc([As](=O)(O)O)cc1,inactive: 0.3%
2,O=[N+]([O-])c1cccc(NC2=NCC(CBr)S2)c1 (stereo not drawn),inactive: 1.1%
3,O=[N+]([O-])c1ncn(CCn2ncnc2[N+](=O)[O-])n1,inactive: -0.4%
4,CC(C)(C)C(=O)NC(Sc1ccncn1)C(Cl)(Cl)Cl (stereo not drawn),inactive: 1.1%
5,CP(=O)(OC12CC3CC(CC(C3)C1)C2)OC12CC3CC(CC(C3)C1)C2,inactive: -2.9%
6,O=C(Nc1cc([As](=O)(O)O)ccc1O)c1ccccc1,inactive: -1.6%
7,CCOC(=O)c1ccc(NP(C)(=O)Oc2ccc(Cl)cc2)cc1 (stereo not drawn),inactive: -0.6%
8,CC1CCN(C(=O)Oc2c(Cl)cc(Cl)c3cccnc23)CC1,inactive: 0.2%
9,CN(C)C(=O)OCCc1n(C)cc[n+]1C,inactive: -1.8%
10,CC(C)=N/N=C(\N)N[N+](=O)[O-],inactive: -0.7%
11,CN(C)C(=O)c1c([N+](=O)[O-])cc([N+](=O)[O-])cc1[N+](=O)[O-],inactive: -0.2%
12,CP(=O)(Nc1ccc(Cl)cc1)Oc1ccc(F)cc1 (stereo not drawn),inactive: -0.4%
13,CCN(/C(=N/P(=O)(N1CCOCC1)N1CCOCC1)N1CCOCC1)c1ccc(OC)cc1,inactive: -5.9%
14,C[N+]1=C2C=CC=CC=C2SC12C([N+](=O)[O-])=CC([N+](=O)[O-])=C[C-]2[N+](=O)[O-] (stereo not drawn),inactive: 0.1%
15,Nc1ccc([As](=O)(O)c2ccc(N)cc2)cc1,inactive: -2.9%
16,CC(C)(C)c1ccc(OP(C)(=O)O)cc1,inactive: -4.7%
17,COc1ccccc1OP(C)(=O)Nc1ccccc1Br (stereo not drawn),inactive: 0.2%
18,O=[N+]([O-])c1cc([N+](=O)[O-])c(CCNc2ccccc2)c([N+](=O)[O-])c1,inactive: 5.9%
19,CCc1nc2c(n1)c1c(non1O)c1c2no[n+]1[O-],inactive: 6.7%
20,CCc1ccc(OP(C)(=O)Nc2cccnc2)cc1 (stereo not drawn),inactive: -4%
21,CP(=O)(Oc1ccccc1)N1CCOC1=O (stereo not drawn),inactive: 0.1%
22,Cc1ccc(NP(=O)(Oc2ccccc2)Oc2ccccc2)nc1,inactive: -1.7%
23,O=C(OCCCN1CCCC1)C(O)(c1ccccc1)C1CCCCC1 (stereo not drawn),inactive: -0.4%
24,COc1ccccc1OP(C)(=O)Nc1c(C)n(C)n(-c2ccccc2)c1=O (stereo not drawn),inactive: -3.1%
25,O=[N+]([O-])c1cccc2n[nH]nc12,inactive: -0.8%
26,COc1ccc(C2=NCC(CBr)S2)cc1 (stereo not drawn),inactive: -3.5%
27,CCN(CC)CC(O)COC(=O)C(O)(c1ccccc1)C1CCCCC1 (stereo not drawn),inactive: -0.3%
28,CCc1ccc(OP(C)(=O)O)cc1,inactive: 0%
